Reference: PubChem BioAssay (NCI)
Several values for one entry are separate records, joined by “and”; a condition that tells them apart may be missing. Equal values may be shown once. This is a selection; strong and weak results do not stand in their true shares. Some structures show a salt or complex split into parts, the way the source records it. Activity calls are given as the source filed them. Rule as the data show it: active = growth inhibition above about 70%; inactive = the rest.

Legend:
[1] = NCI Yeast Anticancer Drug Screen. Data for the rad50 strain (AID 155);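 also: 0% = growth of vehicle-only cultures of the same strain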; conditions: S. cerevisiae rad50 strain growth inhibition; at 50.0 µM; hits give high values
[2] = NCI Yeast Anticancer Drug Screen. Data for the mec2-1 strain (AID 157); conditions: S. cerevisiae mec2-1 strain, at 50.0 µM, hits give high values
[3] = NCI Yeast Anticancer Drug Screen. Data for the cln2 rad14 strain (AID 165);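 also: 0% = growth equal to vehicle treated cultures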; conditions: S. cerevisiae cln2 rad14 strain, at 50.0 µM, hits give high values
[4] = NCI Yeast Anticancer Drug Screen. Data for the bub3 strain (AID 167); conditions: S. cerevisiae bub3 mutant strain, at 50.0 µM, hits give high values
[5] = NCI Yeast Anticancer Drug Screen. Data for the mlh1 rad18 strain (AID 175); conditions: S. cerevisiae mlh1 rad18 strain growth inhibition; at 50.0 µM; hits give high values
[6] = NCI Yeast Anticancer Drug Screen. Data for the sgs1 mgt1 strain (AID 161);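 also: 0% = growth of cultures given vehicle only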; conditions: S. cerevisiae sgs1 mgt1 strain, at 50.0 µM, hits give high values

SMILES	growth inhibition [1]	growth inhibition [2]	growth inhibition [3]	growth inhibition [4]	growth inhibition [5]	growth inhibition [6]
C1CN1.CC(N)C(=O)O.Cc1c[nH]c(=O)[nH]c1=O	inactive: 21%	inactive: -5.5%	inactive: 21.3%	inactive: 26.9%	inactive: 13.5%	–
N=C(OCCN)C(=N)OCCN.O=[N+]([O-])c1cc([N+](=O)[O-])c(O)c([N+](=O)[O-])c1	inactive: 10.2%	inactive: 5.45%	inactive: -5.75%	inactive: -0.55%	inactive: 37.8%	inactive: 14.4%
Cc1cc2ccc3ccccc3c2c2ccccc12.O=C1c2cc([N+](=O)[O-])ccc2-c2c1cc([N+](=O)[O-])cc2[N+](=O)[O-]	inactive: 23.7%	inactive: 11.6%	inactive: -8.6%	inactive: 35%	inactive: 47.5%	inactive: 20.6%
CCN(CC)CCOC(=O)C(O)(c1ccc(C)cc1)c1ccc(C)cc1	inactive: 19.6%	inactive: 7%	inactive: 3.4%	inactive: 2.1%	inactive: 15.9%	inactive: 9.7%
NC1CCC2C3CCC(C3)C12.O=[N+]([O-])c1cc([N+](=O)[O-])c(O)c([N+](=O)[O-])c1	inactive: 46.6%	inactive: 16.3%	inactive: -8.8%	inactive: 21%	inactive: 31.5%	–
O=[N+]([O-])c1cc([N+](=O)[O-])c(O)c([N+](=O)[O-])c1.c1cc(CCCSCCCc2ccncc2)ccn1	inactive: 48.7%	inactive: 20.1%	inactive: 37.7%	inactive: 17.1%	inactive: 43.3%	inactive: 58.8%
COC(=O)/C(=C\c1ccc(Cl)cc1)CN1CCCCC1.O=[N+]([O-])c1cc([N+](=O)[O-])c(O)c([N+](=O)[O-])c1	inactive: 24.5%	inactive: -17.1%	inactive: -37.5%	inactive: -1.2%	inactive: -4.65%	inactive: 12.3%
C=CCc1cccc2ccccc12.O=[N+]([O-])c1cc([N+](=O)[O-])c(O)c([N+](=O)[O-])c1	inactive: 15.2%	inactive: -1.15%	inactive: -1.2%	inactive: 3.8%	inactive: 21.6%	inactive: 18.9%
CC1CCCCN2CCCC12.O=[N+]([O-])c1cc([N+](=O)[O-])c(O)c([N+](=O)[O-])c1	inactive: 32%	inactive: 4.5%	inactive: 18.6%	inactive: -2.15%	inactive: 7.9%	inactive: 31.5%
CCCCC(CC)COP(O)OCC(CC)CCCC.[Cd] (configuration not stated)	inactive: 22.3%	inactive: 14.1%	inactive: -70.6%	inactive: 17.3%	inactive: 41%	inactive: 19.8%
C/C1=C\C(=O)OCC23CCC4(C)OC4C2OC2CC(OC(=O)/C=C/C=C/C(=O)OCC1)C3(C)C21CO1 (configuration not stated)	active: 92.2%	active: 93.3%	active: 91.5%	active: 91.7%	active: 91.1%	active: 92.7%
O=[N+]([O-])c1ncn(F)c1[N+](=O)[O-]	inactive: 15.9%	inactive: 12.4%	inactive: -1.1%	inactive: 12.1%	inactive: 15.1%	inactive: 15.7%
CC(c1ccccc1)N(C)C.O=[N+]([O-])c1cc([N+](=O)[O-])c(O)c([N+](=O)[O-])c1	inactive: 6.2%	inactive: -6.4%	–	inactive: -1.3%	inactive: 10.8%	inactive: 4%
CCN(CC)CCOC(=O)C(O)(c1ccccc1C)c1ccccc1C	inactive: -5.25%	inactive: -10.4%	inactive: -5.1%	inactive: -11.9%	inactive: -8.7%	inactive: -16.1%
COC(=O)CC1CCC(C(=O)OC)N1C.O=[N+]([O-])c1cc([N+](=O)[O-])c(O)c([N+](=O)[O-])c1	inactive: 27.9%	inactive: 8.75%	inactive: 18.7%	inactive: 1.6%	inactive: 19.9%	inactive: 31.4%
CN(C)Cc1cc2ccccc2[nH]1.O=[N+]([O-])c1cc([N+](=O)[O-])c(O)c([N+](=O)[O-])c1	inactive: -4.3%	inactive: 9.55%	inactive: -17%	–	inactive: 37%	inactive: 13.7%
CC(O)CNC(C)C.O=[N+]([O-])c1cc([N+](=O)[O-])c(O)c([N+](=O)[O-])c1	inactive: 5.9%	inactive: 4.5%	inactive: -39.2%	inactive: -12.6%	inactive: 2.95%	–

SMILES	growth inhibition [1]	growth inhibition [2]	growth inhibition [3]	growth inhibition [4]	growth inhibition [5]	growth inhibition [6]
CCNCCN=C(N)C(N)=NCCNCC	inactive: 16.2%	inactive: 14.6%	inactive: -5.15%	inactive: 0.1%	inactive: 38.2%	inactive: 46.4%
C[N+]1(Cc2ccccc2C[N+]2(C)CCCCCC2)CCCCCC1.O=[N+]([O-])c1cc([N+](=O)[O-])c([O-])c([N+](=O)[O-])c1	inactive: 0.8%	inactive: -2.85%	inactive: -23.6%	inactive: -17.8%	inactive: -7.45%	inactive: -2.15%
CCOP(=O)(CC)OP(=S)(OCC)OCC (configuration not stated)	inactive: 3.4%	inactive: -5.15%	inactive: -39.9%	inactive: -3.35%	inactive: 3.25%	inactive: 5.8%
Cc1cc2ccccc2cc1C.O=[N+]([O-])c1cc([N+](=O)[O-])c(O)c([N+](=O)[O-])c1	inactive: 24.1%	inactive: 3.5%	inactive: 5.5%	inactive: 3.2%	inactive: 13.7%	inactive: 24.6%
C1CN1.Cc1c[nH]c(=O)[nH]c1=O	inactive: -15.3% and inactive: -8.3%	inactive: -28.2% and inactive: 13.6%	inactive: -25.9% and inactive: -11.9%	inactive: -17.3% and inactive: 2.85%	inactive: -31.6% and inactive: -25.7%	–
O=C1c2cc([N+](=O)[O-])ccc2-c2c1cc([N+](=O)[O-])cc2[N+](=O)[O-].c1cc2ccc3cccc4ccc(c1)c2c34	inactive: 11.7%	inactive: -0.8%	–	inactive: 3.8%	inactive: 42.3%	inactive: 15.1%
Cc1cccc2cc3c(ccc4ccccc43)cc12.O=C1c2cc([N+](=O)[O-])ccc2-c2c1cc([N+](=O)[O-])cc2[N+](=O)[O-]	inactive: -4%	inactive: 8.3%	inactive: -10.5%	–	inactive: 21.9%	inactive: 9.15%
CCOP(=O)(O)CC.[Ti]	inactive: -9.55%	inactive: -16.1%	inactive: -39.5%	inactive: -8.55%	inactive: -15.2%	inactive: -8.45%
CCP1(=O)Nc2ccc(Cl)cc2N1 (configuration not stated)	inactive: -3.3%	inactive: 15.6%	inactive: -29.6%	inactive: 3.6%	inactive: 12.3%	inactive: -1.75%
O=C(Nc1c([N+](=O)[O-])cc([N+](=O)[O-])cc1[N+](=O)[O-])C(=O)Nc1c([N+](=O)[O-])cc([N+](=O)[O-])cc1[N+](=O)[O-]	inactive: 9.15%	inactive: -0.15%	inactive: 21.4%	inactive: -9.55%	inactive: -8.55%	inactive: 27.9%
CC1=CC(C)(C)N=C(N)N1.O=[N+]([O-])c1cc([N+](=O)[O-])c(O)c([N+](=O)[O-])c1	inactive: 1.2%	inactive: -4.65%	inactive: -2.1%	inactive: 7.1%	inactive: 16.1%	inactive: -4.1%
COP(C)(=O)O.[Ce]	inactive: -1.45%	inactive: -12.6%	inactive: -30.9%	inactive: -3.35%	inactive: 14.8%	inactive: 11.7%
O=[N+]([O-])c1cc([N+](=O)[O-])c(F)c([N+](=O)[O-])c1	inactive: -15.2%	inactive: -18.8%	–	–	inactive: -24.3%	–
ClCCN[PH+]1OCCCN1CCCl.ClCCN[PH+]1OCCCN1CCCl.[Cl][Pt][Cl] (configuration not stated)	inactive: 2.4%	inactive: 4.7%	inactive: -13.1%	inactive: -4.6%	inactive: 10.3%	inactive: -2.6%
CCC(CO)NC(C)C.O=[N+]([O-])c1cc([N+](=O)[O-])c(O)c([N+](=O)[O-])c1	inactive: -5.95%	inactive: -4.05%	inactive: -25.5%	inactive: -10.3%	inactive: -3.7%	inactive: -0.85%
O=[N+]([O-])c1cc([N+](=O)[O-])c(O)c([N+](=O)[O-])c1.OC(c1ccccc1)C(c1ccccc1)c1cc(-c2ccccc2)n[nH]1 (configuration not stated)	active: 99.3%	active: 99.5%	active: 99.4%	active: 98.9%	active: 99.3%	active: 99.5%
